Values quoted from earlier work in patent publication US8183046B2, “Temperature resistant pH buffers for use at low temperatures” (The Board of Trustees of the University of Illinois, priority 2007, dated 2012).

Details: Table 2; buffer without pK index; cited from earlier work

OCCN(CCO)CCO
Effective pH Range: 7.0–8.3
